From patent US12098118B2 (Regents of the University of Minnesota, priority 2018, dated 2024)

Test: cardiovascular measures / heart rate after i.v. injection
Details: i.v. injection (FIG. 4)

| SMILES | impact on heart rate |
| --- | --- |
| CC(=O)NCCCCN/C(=N\C(=O)OC(C)(C)C)NC(=O)OC(C)(C)C [J-4, 4-(2,3-bis(tert-butyloxycarbonyl)guanidino)butylacetamide] | neither agmatine or J-4 had any effect |
| N=C(N)NCCCCN [agmatine, 1-(4-aminobutyl)guanidine, reference compound] | neither agmatine or J-4 had any effect |
| Clc1cccc(Cl)c1N=C1NCCN1 [clonidine, reference compound] | reduced heart rate for 60 minutes post-injection |
